Reference: the NIST ThermoML archive (doi:10.1021/je900022k)
± gives the expanded uncertainty stated by the source.

Details: Crystal; visual observation

Normal melting temperature: 263.00 ± 1 °C
SMILES: Cl.NCCCC[C@H](N)C(=O)O [L-lysine monohydrochloride]
